In ChEMBL document CHEMBL2057208, “Benzoylbenzimidazole-based selective inhibitors targeting Cryptosporidium parvum and Toxoplasma gondii calcium-dependent protein kinase-1” (Bioorg Med Chem Lett, 2012):

What was measured:
[1] = Selectivity ratio of IC50 for human ABL to IC50 for Cryptosporidium parvum CDPK1
[2] = Selectivity ratio of IC50 for human SRC to IC50 for Cryptosporidium parvum CDPK1
[3] = Selectivity ratio of IC50 for human ABL to IC50 for Toxoplasma gondii CDPK1
[4] = Selectivity ratio of IC50 for human SRC to IC50 for Toxoplasma gondii CDPK1

Measured: Ratio IC50

CN1CCN(CCn2c(N)nc3ccc(C(=O)c4ccccc4)cc32)CC1
> 200: [1] | [2] | [3] | [4]
